# According to patent US6462171B1, “Peptides and pharmaceutical compositions thereof for treatment of disorders or diseases associated with abnormal protein folding into amyloid or amyloid-like deposits” (New York University, priority 1995, dated 2002):
# Sequences of proteins named here, by UniProt entry; tags and fusion partners are left off. Residues count along the entry.
# UniProt P05067, 18-42: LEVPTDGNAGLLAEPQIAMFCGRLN
# Tests used:
# Aβ1-40 = assay: Thioflavine T fluorometric assay of amyloid formation by Aβ1-40; format: biochemical; conditions: amyloid remaining; 30 μg Aβ with 10-fold molar excess of peptide, 2 days, room temperature, 0.1M tris pH 7.6; Aβ alone = 100
# Aβ1-42 = Aβ1-42 (Homo sapiens, UniProt P05067); assay: Thioflavine T fluorometric assay of amyloid formation by Aβ1-42; format: biochemical; conditions: amyloid remaining; 30 μg Aβ with 10-fold molar excess of peptide, 2 days, room temperature, 0.1M tris pH 7.6; Aβ alone = 100
substance,measurement,setting,value
Aβ10-20: short Aβ fragment (YEVHHQKLVFF) [reference compound],% of amyloid Aβ1-40,Aβ1-40,73.1 ± 0.9%
same,% of amyloid Aβ1-42,Aβ1-42,80.9 ± 1.6%
